Data as given in PMC4427029 (Cell, 2015).

The chains behind the UniProt entries cited, without tags or fusion partners.
UniProt P30556, whole entry Y92A: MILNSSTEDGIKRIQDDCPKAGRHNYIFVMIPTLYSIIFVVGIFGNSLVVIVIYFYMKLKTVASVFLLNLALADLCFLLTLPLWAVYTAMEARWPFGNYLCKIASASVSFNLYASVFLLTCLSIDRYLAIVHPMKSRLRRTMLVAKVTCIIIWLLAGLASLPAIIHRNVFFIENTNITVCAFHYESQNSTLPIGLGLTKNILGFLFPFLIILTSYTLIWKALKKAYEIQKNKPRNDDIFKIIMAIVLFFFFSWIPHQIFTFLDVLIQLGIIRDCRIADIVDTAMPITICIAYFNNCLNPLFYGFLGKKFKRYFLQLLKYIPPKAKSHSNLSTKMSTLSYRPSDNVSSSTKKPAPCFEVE

Target: AT1R single mutants (Homo sapiens, UniProt P30556, Y92A)
Test: Ligand binding assays on AT1R single mutants, COS-1 cell membranes
Conditions: Tyr92Ala mutant

change of affinity at mutant: dramatic decrease
SMILES: CCCc1nc2c(C)cc(-c3nc4ccccc4n3C)cc2n1Cc1ccc(-c2ccccc2C(=O)O)cc1 [telmisartan]
